PMC8119466, “A screen of FDA-approved drugs identifies inhibitors of protein tyrosine phosphatase 4A3 (PTP4A3 or PRL-3)” (Scientific Reports, 2021)

Experiments:
recombinant PRL-2 = molecular target: T1, recombinant PRL-2 (Homo sapiens, UniProt Q12974); assay: In vitro phosphatase assay (DiFMUP hydrolysis), PRL-2;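 further: PRL-2 activity read as DiFMUP hydrolysis after 20 min at room temperature with drug, enzyme first pre-reduced at 4 °C for 20 min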
T1 sequence (Q12974 1-167): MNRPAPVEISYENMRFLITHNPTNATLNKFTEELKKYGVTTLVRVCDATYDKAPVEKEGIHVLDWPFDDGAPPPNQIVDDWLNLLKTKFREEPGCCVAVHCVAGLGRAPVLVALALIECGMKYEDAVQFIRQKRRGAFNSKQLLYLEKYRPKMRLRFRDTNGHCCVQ

recombinant PRL-1 = molecular target: T2, recombinant PRL-1 (Homo sapiens, UniProt Q93096); assay: In vitro phosphatase assay (DiFMUP hydrolysis), PRL-1; settings: FDA-approved drug screen; further: test concentration or dose not given here
T2 sequence (Q93096 1-173): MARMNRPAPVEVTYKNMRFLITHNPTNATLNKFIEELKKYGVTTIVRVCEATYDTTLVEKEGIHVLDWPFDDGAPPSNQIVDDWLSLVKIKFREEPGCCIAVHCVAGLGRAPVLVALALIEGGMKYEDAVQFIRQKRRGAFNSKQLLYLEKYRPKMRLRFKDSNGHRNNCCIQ

| Compound | % Phosphatase Activity (compared to DMSO) PRL-2 (recombinant PRL-2) | % Phosphatase Activity (compared to DMSO) PRL-1 (recombinant PRL-1) |
| --- | --- | --- |
| CN/C(=N/CCSCc1nc[nH]c1C)NC#N [Cimetidine] | 113% |  |
| CC1(C)S[C@@H]2[C@H](NC(=O)[C@H](N)c3ccc(O)cc3)C(=O)N2[C@H]1C(=O)O [Amoxicillin] |  | 125% |
